## AlphaSeq binding of Ab-14 light chain variants to a spike HR2 peptide

Antigen: PDVDLGDISGINAS, a 14-residue peptide of the SARS-CoV-2 spike HR2 region.

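Phage display of a naive human antibody library on the peptide gave the parent. Designed CDR sequences, proposed from the first random library and measured here. Several design methods are mixed in this list. The assay is AlphaSeq: two haploid yeast populations carry antibody and antigen on their surface. Binding brings cells together so that they mate, and sequencing counts the barcode pairs among the diploids. Read counts were normalised to the haploid input and turned into Kd by a linear fit to BCL2-family pairs of known affinity, for each replicate. The assay was run in six technical replicates.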

The variants keep the heavy chain, the linker and the frameworks of Ab-14 (scFv order VH, the linker GGGGSGGGGSGGGGS, VL).
VH: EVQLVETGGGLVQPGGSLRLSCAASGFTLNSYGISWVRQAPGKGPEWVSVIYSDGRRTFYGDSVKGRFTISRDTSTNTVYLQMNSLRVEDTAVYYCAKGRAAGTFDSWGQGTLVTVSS
VL: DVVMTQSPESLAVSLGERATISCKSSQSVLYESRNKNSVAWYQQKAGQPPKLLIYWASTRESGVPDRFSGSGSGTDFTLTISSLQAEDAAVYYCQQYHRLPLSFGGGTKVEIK

The parent's light chain CDRs are KSSQSVLYESRNKNSVA, WASTRES, QQYHRLPLS; each variant's own CDRs replace them letter for letter. Values are log10 of the apparent Kd in nM; lower means stronger binding. Averages over replicates are reported, and they cover detected replicates only. "nd" means that the variant was in the library but no mating with the target was seen in any replicate; the authors take this as a sign of poor binding, and no number exists. Background: pairings of all light chain designs with three empty control strains gave a value in 4% of cases (median 2.64, 5th percentile 1.59). Values in that range, when seen in few replicates, are hard to tell from nonspecific mating. Also given: how often the same scFv was detected with the empty control strains.

CDR-L1,CDR-L2,CDR-L3,"log10 Kd (nM), mean",seen in,control signals
KLSQSWLYLSRNANSVA,NASQRED,QQYHRLPLS,-0.49,6 of 6,5 of 18
TLGQSTLMESRNKNNVA,QMSTREK,QQYDRLPLS,0.23,6 of 6,0 of 18
HSSPSVEYESRNKNSVA,NASQRIS,QQYHRLPLS,-0.06,6 of 6,2 of 18
NLSIEMSHYYENRYSIA,DMTVREY,QHYSRIPLA,nd,0 of 6,0 of 18
KVSQSVMLLQRNKNSVA,DNSTSGS,QQYHRLPLS,3.35,2 of 6,2 of 18
KLSQSVLGGSRNKNSVA,HANQRES,QQYHRLPLY,0.73,6 of 6,2 of 18
KVSEFMRGLMMRSDSIA,DNVTRNK,QQYDRLPLS,1.50,5 of 6,1 of 18
KISQMARVGSTKQNSIA,EEATRCD,QQYHRLPLA,1.08,6 of 6,3 of 18
KISQMVNYETTHINAVA,QMSTREE,QQYFRLPLS,1.18,6 of 6,0 of 18
KLMQEDEYESRNPNSVA,QASERES,QQYHRLPLS,-0.55,6 of 6,0 of 18
WISQSVLYESRDKNSVA,NASTRES,QQYHRLPLS,0.19,6 of 6,1 of 18
KLSNVTEYESRNKNNVA,DLTTRGS,QDYHRLPLS,0.09,6 of 6,0 of 18
TISGLIMMPSRAKNSVA,NTSTRYQ,QQYHRLPLS,1.02,6 of 6,0 of 18
TISQSTNMTSRGKNSVA,QAEMRES,QQYDRLPLS,1.63,5 of 6,0 of 18
KSSQAVLTESRNKNSVA,WASTRES,QQYFRLPLR,nd,0 of 6,0 of 18
KISTLTLYESVNKNNVA,EMSTRPS,QSYHRLPLS,1.14,6 of 6,1 of 18
KIGMTLNQVYEKANNVA,DLVERVN,QQYHRLPLS,-0.29,6 of 6,0 of 18
KMGIGVLYESRNKGSVA,GASVRES,QQYHRCPLS,nd,0 of 6,0 of 18
KLSSEYFDSYGERQAVA,ENEATSN,QQYSLLPLS,1.81,6 of 6,0 of 18
KFSYEYEMVNTAKESIA,NAHTVQM,QQYSRLPLA,1.14,6 of 6,0 of 18
KQQCGELYGSRNKNSVA,DASQRES,QQYHRLPLS,0.96,6 of 6,1 of 18
KISQSWLYESRNSNSVA,EASTRED,QDYHRLPLS,-0.12,6 of 6,0 of 18
KLDPSDLGEERNKNSVA,QASQREI,QQYHRLPLS,-0.18,6 of 6,0 of 18
KVHAYVQGVEQDQQNIA,ETSYASR,QQYFRLPLS,1.19,6 of 6,0 of 18
KLSQSVLYESRNSNNVA,EASTRES,QQYHRLPLS,-0.22,6 of 6,2 of 18
KLKQSELYESRNKNSVA,NASQRES,QQYHRLPLS,-0.33,6 of 6,0 of 18
KLSNWYFDSYGNKESVA,ENEATSN,QQYSLLPLS,1.63,3 of 6,0 of 18
KQSQSVLYESRNKNSVA,GASTRES,QQYHRLPLS,-0.05,6 of 6,2 of 18
KVSQSVLYESRMKNSVA,DASTRCS,QQYHRLPLS,0.55,6 of 6,1 of 18
KLSQVTHSEHVNKNSIA,EMVTREK,QQYDRLPLS,1.06,6 of 6,0 of 18
KVSESMAFLSRNRNSVA,DNSTRGS,QQYHRLPLS,1.03,6 of 6,2 of 18
MVNTNLVHQANRDNNIA,EADMVAA,QDYDRLPLI,2.10,5 of 6,2 of 18
KISQSWLYESRNKNSVA,NGSTRES,QQYHRLPLS,-0.24,6 of 6,0 of 18
IVSQLMLWGLHAKNSIA,EAQTRLN,QQYDRLPLI,nd,0 of 6,0 of 18
KISYMGEFFSTNHSSIA,QASTREQ,QQYHRLPLS,1.37,5 of 6,0 of 18
KVSMSVQYEARNINSVA,EASTRED,QQYHRLPLS,0.07,6 of 6,0 of 18
KLSQSDLYESRNKNSVA,GGSTRES,QQYHRLPLS,0.06,6 of 6,2 of 18
SLMNLMGGIEEMKNSIA,NHEIGVR,QQYAHLPLV,nd,0 of 6,0 of 18
KSSQSDLYESRNKNSVA,GASTRES,QEYHRLPLS,0.43,6 of 6,0 of 18
KSSPSVLYESDNKNSVA,WASTRES,QQYHRLALS,nd,0 of 6,0 of 18
KDMQSWLYWSRNKNSVA,NASQREH,QQYHRLPLS,0.94,6 of 6,2 of 18
KSSQSVLYESRNKNSVA,WASTRAS,QQYCRLPLS,1.16,3 of 6,1 of 18
MITMGLRGVGRNKNSVA,NAQTRES,QHYHRLPLS,1.75,6 of 6,0 of 18
KLSSSWLYESRNMNSVA,QASQRLR,QQYHRLPLS,2.49,4 of 6,0 of 18
KLSQSVLYESRNKNSVA,NASQRSS,QQYHRLPLS,-0.66,6 of 6,0 of 18
MISQVLNTLTRTGNNVA,DLAEREV,QQYFRLPLS,1.05,6 of 6,0 of 18
HLSMLTHVESGVKNNVA,QMETREE,QQYDRLPLS,1.08,6 of 6,0 of 18

8 of these entries, quoted again:

CDR-L1	CDR-L2	CDR-L3	log10 Kd (nM), mean	seen in	control signals
KLMQEDEYESRNPNSVA	QASERES	QQYHRLPLS	-0.55	6 of 6	0 of 18
HSSPSVEYESRNKNSVA	NASQRIS	QQYHRLPLS	-0.06	6 of 6	2 of 18
KLSSSWLYESRNMNSVA	QASQRLR	QQYHRLPLS	2.49	4 of 6	0 of 18
KISYMGEFFSTNHSSIA	QASTREQ	QQYHRLPLS	1.37	5 of 6	0 of 18
KLKQSELYESRNKNSVA	NASQRES	QQYHRLPLS	-0.33	6 of 6	0 of 18
KISQMARVGSTKQNSIA	EEATRCD	QQYHRLPLA	1.08	6 of 6	3 of 18
MVNTNLVHQANRDNNIA	EADMVAA	QDYDRLPLI	2.10	5 of 6	2 of 18
KSSQSDLYESRNKNSVA	GASTRES	QEYHRLPLS	0.43	6 of 6	0 of 18

Of ten entries with the parent sequence, four were seen in most replicates (averages 0.34 to 2.37), three in one and three in none, so single entries are noisy. The range of this assay differs from that of the first round, and the authors advise against merging the two. In the paper, a design with two or fewer of six values counts as a poor binder.

Source: Li et al. 2023 (doi:10.1038/s41467-023-39022-2), MIT Lincoln Laboratory and A-Alpha Bio; data file from the FLAb repository.